# Apparent affinities of Ab-95 variants for a coronavirus HR2 peptide

The target is the same throughout: PDVDLGDISGINAS, from the HR2 region of SARS-CoV-2 spike.

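Phage display of a naive human antibody library on the peptide gave the parent. In library AAYL52, one, two or three CDR residues were substituted; doubles and triples were drawn at random. Affinity was read by AlphaSeq, a pooled yeast mating assay with surface-displayed partners. Mating (16 h, 30 °C) was followed by selection of diploids and sequencing of their barcodes. The ratio of observed to expected reads was calibrated, replicate by replicate, on BCL2-family standards whose Kd was known from biolayer interferometry. Mating was done three times.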

Parent scFv Ab-95: VH joined to VL by three GGGGS repeats. Changes lie in the light chain CDRs alone.
VH: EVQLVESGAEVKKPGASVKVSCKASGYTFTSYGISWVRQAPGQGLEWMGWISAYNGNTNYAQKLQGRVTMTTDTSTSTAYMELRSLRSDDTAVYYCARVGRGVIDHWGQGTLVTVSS
VL: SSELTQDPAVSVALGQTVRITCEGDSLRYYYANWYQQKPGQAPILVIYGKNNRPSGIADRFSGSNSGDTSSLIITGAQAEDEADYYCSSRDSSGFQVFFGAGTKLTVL

Each variant is given by its three light chain CDRs, as the data file delimits them; those of the parent are EGDSLRYYYAN, GKNNRPS, SSRDSSGFQVF. Numbers give log10(Kd / nM), so 0 is 1 nM and 3 is 1 µM. Smaller is tighter. A mean of the replicates is given; it leaves out those without a signal. "nd" means that the variant was in the library but no mating with the target was seen in any replicate; the authors take this as a sign of poor binding, and no number exists. For reference, the parent read 2.31 as the reference entry and 2.25 as a member of this library. Background: pairings of library AAYL52 with three empty control strains gave a value in 28% of cases (median 3.91, 5th percentile 2.90). Values in that range, when seen in few replicates, are hard to tell from nonspecific mating. The control count says in how many pairings with the empty strains this scFv gave a signal.

CDR-L1	CDR-L2	CDR-L3	mean log10 Kd (nM)	replicates with signal	control signals
EGDSLRYYYAN	GKNRRPS	SSRIMSGFQVF	3.21	3/3	3/9
EGDSLRYYYAN	LKNNRPS	SSRDSSGFDVG	nd	0/3	0/9
EGTSLRYYYAN	QKNNRPS	SSRDESGFQVF	3.25	3/3	2/9
EGDSLRYIYYN	GKNNRPS	SSRDSSGFQDF	4.83	1/3	0/9
EGDSLRYYYAN	GKMNRPS	SSRDLSGFQVF	3.48	2/3	3/9
EGDSLRYYYAP	GKNNRPS	SSTDSSGFQVF	4.10	2/3	4/9
EGDSLRYYPAN	GKNNKPS	SSRDHSGFQVF	1.14	3/3	5/9
ECDSLRYYYYR	GKNNRPS	SSRDSSGFQVF	nd	0/3	2/9
EGDSLRYYYAN	IKENRPS	SSRDSSGFQGF	nd	0/3	4/9
MGDSLRDYYAN	GNNNRPS	SSRDSSGFQVF	1.16	3/3	4/9
SGDSLRYHYAN	GKNNRPS	SSADSSGFQVF	2.83	1/3	3/9
EGDSLSYYYAN	GKNNRWS	SIRDSSGFQVF	2.72	3/3	0/9
EGDSLRYYYAN	GKNFKPS	SSRDWSGFQVF	1.90	3/3	3/9
IGHSLRYYYAN	GKNNRPS	SSRDSSGFQVF	3.04	3/3	2/9
EGSSLRYYWAN	GKNNRPS	SSEDSSGFQVF	3.22	2/3	5/9
RGDSLRYYYAN	GKNNRPS	SSRRSSGFQVF	2.53	3/3	1/9
EGDVLRYYYCN	GKNNRPS	SSRDSSGFQVF	3.75	3/3	1/9
EGDSLRYYYAN	GKNNRPS	SSMSSSGAQVF	4.53	2/3	1/9
EGDSQRYRYAN	GKNNRPS	SSVDSSGFQVF	3.23	3/3	5/9
EGDRLRWYYAN	GKNNRPS	SRRDSSGFQVF	4.00	1/3	4/9
EGDSLFYYYAN	GKNKRMS	SSRDSSGFQVF	4.82	1/3	0/9
ETDSIRYYYAN	GKNNRPS	SSRDSSGFQRF	4.63	2/3	5/9
RHDSLRYYYAN	GKNNRPS	SSRDSSGQQVF	3.21	3/3	5/9
EGDWLRYYYAN	GPNNRPS	SSRDSTGFQVF	2.69	3/3	4/9
EHLSLRYYYAN	YKNNRPS	SSRDSSGFQVF	nd	0/3	2/9
EEDSLRYYYGN	GKNNRPS	SSRDSGGFQVF	4.08	1/3	1/9
EGDMLRYYYAN	GKNKRPF	SSRDSSGFQVF	3.78	3/3	3/9
EGDSLRYYYAG	GKNNRPS	GSRDRSGFQVF	nd	0/3	1/9
EYDCLRYYYAN	GKCNRPS	SSRDSSGFQVF	4.42	2/3	5/9
EGDSLRYYGAN	GKNNRPT	SSRDSSGYQVF	1.90	3/3	4/9
EGDSLRYYYAN	GKNNRPS	SSRDMSMDQVF	2.72	3/3	3/9
EGDSLRYYYAN	QKNNRPS	SYRDISGFQVF	nd	0/3	3/9
EGDSLRSYVAN	GKNCRPS	SSRDSSGFQVF	3.97	3/3	4/9
EGDSLRYLYAN	GKNNDPS	SNRDSSGFQVF	3.50	1/3	1/9
MGDSLRYYYAN	GKNNRPS	SSRDSSLFQVF	2.17	3/3	4/9
EGDSLRYAYYN	GKNNRPS	SIRDSSGFQVF	3.44	3/3	4/9
EGDSLRYYYNN	GKNNRPS	SDRDSSGRQVF	3.02	3/3	1/9
EGPSLRYYYAN	GKWNRPS	SSRDSSVFQVF	nd	0/3	1/9
EGESLRYYSAN	GKNNRPS	SSRDSSGFGVF	2.12	3/3	3/9
LGDSLRYYYAN	GKNNRPS	SSRDNSSFQVF	nd	0/3	2/9
ELDSLRYYYAN	GKNNRPS	SSTDSSGFQWF	3.95	2/3	5/9
EGDSLRYYYAN	GKNNRPV	SSRDPNGFQVF	2.61	3/3	6/9
FGDTLRYYYAN	GKNNRPS	SHRDSSGFQVF	nd	0/3	4/9
EGDSLRYYYAN	GKNNRHS	SSRDSSGMWVF	nd	0/3	0/9
EGDSLRYYYAQ	GKNNRPS	SEADSSGFQVF	3.47	2/3	1/9
EGDSLRKYYAN	GKNNWPS	SSRDSSGLQVF	3.26	2/3	2/9
EGDSLRYYYAN	GKNNRPS	YSFDSSGFDVF	4.05	2/3	0/9
EGDSLKYYYAN	GKNNRPS	YKRDSSGFQVF	2.81	3/3	1/9
EGDSLRYMYAN	GNNNRPS	SSLDSSGFQVF	4.00	2/3	2/9

A selection of 4 entries from above:

{"CDR-L1": "EHLSLRYYYAN", "CDR-L2": "YKNNRPS", "CDR-L3": "SSRDSSGFQVF", "mean log10 Kd (nM)": "nd", "replicates with signal": "0/3", "control signals": "2/9"}
{"CDR-L1": "EGDSLRYYYAN", "CDR-L2": "GKNNRPS", "CDR-L3": "YSFDSSGFDVF", "mean log10 Kd (nM)": "4.05", "replicates with signal": "2/3", "control signals": "0/9"}
{"CDR-L1": "EGDSLRYYYAG", "CDR-L2": "GKNNRPS", "CDR-L3": "GSRDRSGFQVF", "mean log10 Kd (nM)": "nd", "replicates with signal": "0/3", "control signals": "1/9"}
{"CDR-L1": "EGDSLRYAYYN", "CDR-L2": "GKNNRPS", "CDR-L3": "SIRDSSGFQVF", "mean log10 Kd (nM)": "3.44", "replicates with signal": "3/3", "control signals": "4/9"}

Reference: Engelhart et al. 2022, doi:10.1038/s41597-022-01779-4. File: FLAb, binding data.